Data taken from the supplement of paper PMC11403291.

Sequences of proteins named here, by UniProt entry; tags and fusion partners are left off. A change or cut given only in a name is not applied to a line headed by its entry.
UniProt Q8IWQ3: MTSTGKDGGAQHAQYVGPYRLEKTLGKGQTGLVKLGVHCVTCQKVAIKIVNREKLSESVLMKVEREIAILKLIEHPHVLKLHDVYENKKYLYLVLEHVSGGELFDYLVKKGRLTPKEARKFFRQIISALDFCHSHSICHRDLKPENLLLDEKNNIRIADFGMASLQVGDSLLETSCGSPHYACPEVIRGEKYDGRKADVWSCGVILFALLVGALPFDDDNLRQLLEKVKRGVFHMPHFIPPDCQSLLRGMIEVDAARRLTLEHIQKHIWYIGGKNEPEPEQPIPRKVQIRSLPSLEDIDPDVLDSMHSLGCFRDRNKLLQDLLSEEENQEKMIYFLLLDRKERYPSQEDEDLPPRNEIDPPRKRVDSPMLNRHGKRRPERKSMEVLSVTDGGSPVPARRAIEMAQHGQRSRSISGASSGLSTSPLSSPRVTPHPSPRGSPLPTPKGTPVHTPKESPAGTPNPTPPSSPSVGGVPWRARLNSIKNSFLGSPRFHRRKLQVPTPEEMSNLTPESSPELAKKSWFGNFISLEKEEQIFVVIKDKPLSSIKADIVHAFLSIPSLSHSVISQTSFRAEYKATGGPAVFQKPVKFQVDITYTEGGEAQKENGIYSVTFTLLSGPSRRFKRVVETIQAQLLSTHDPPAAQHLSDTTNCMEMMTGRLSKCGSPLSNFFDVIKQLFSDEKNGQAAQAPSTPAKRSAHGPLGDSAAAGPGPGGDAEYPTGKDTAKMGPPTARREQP
UniProt Q04912, whole entry: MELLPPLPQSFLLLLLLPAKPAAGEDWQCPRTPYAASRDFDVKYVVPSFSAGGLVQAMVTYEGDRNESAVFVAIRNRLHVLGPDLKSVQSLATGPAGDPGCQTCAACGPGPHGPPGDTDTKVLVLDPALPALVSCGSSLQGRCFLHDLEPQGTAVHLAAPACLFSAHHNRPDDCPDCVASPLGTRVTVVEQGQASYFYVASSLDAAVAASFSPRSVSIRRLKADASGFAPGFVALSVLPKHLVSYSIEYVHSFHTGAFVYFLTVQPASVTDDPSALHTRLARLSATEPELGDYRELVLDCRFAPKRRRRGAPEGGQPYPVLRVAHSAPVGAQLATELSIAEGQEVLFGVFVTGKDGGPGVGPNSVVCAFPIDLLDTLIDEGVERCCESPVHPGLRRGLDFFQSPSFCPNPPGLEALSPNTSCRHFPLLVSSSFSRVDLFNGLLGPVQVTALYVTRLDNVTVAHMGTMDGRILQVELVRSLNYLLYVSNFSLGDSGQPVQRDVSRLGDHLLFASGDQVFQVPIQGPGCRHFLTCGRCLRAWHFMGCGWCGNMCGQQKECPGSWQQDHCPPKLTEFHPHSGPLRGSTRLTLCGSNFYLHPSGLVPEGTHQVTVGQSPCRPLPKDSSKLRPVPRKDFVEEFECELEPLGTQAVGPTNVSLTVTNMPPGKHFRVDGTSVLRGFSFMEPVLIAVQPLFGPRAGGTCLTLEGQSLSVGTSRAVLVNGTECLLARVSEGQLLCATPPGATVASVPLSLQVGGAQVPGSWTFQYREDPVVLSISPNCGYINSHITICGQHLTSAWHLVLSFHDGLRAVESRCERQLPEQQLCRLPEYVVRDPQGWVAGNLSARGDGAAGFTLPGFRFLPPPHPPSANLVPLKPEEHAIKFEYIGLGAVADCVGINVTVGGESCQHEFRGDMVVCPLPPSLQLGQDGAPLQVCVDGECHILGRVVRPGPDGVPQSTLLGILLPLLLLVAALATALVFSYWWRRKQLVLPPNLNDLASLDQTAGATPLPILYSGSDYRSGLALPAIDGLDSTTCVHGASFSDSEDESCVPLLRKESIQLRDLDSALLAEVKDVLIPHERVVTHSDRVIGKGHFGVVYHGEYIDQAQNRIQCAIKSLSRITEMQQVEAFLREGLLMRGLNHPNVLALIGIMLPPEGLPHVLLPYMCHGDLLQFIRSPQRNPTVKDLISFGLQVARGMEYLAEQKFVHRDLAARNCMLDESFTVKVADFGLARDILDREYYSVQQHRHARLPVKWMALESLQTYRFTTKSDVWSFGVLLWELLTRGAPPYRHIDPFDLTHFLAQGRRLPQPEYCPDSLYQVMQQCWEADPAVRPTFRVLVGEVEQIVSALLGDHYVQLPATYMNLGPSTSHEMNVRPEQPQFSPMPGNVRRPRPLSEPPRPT
UniProt Q9UK32, whole entry: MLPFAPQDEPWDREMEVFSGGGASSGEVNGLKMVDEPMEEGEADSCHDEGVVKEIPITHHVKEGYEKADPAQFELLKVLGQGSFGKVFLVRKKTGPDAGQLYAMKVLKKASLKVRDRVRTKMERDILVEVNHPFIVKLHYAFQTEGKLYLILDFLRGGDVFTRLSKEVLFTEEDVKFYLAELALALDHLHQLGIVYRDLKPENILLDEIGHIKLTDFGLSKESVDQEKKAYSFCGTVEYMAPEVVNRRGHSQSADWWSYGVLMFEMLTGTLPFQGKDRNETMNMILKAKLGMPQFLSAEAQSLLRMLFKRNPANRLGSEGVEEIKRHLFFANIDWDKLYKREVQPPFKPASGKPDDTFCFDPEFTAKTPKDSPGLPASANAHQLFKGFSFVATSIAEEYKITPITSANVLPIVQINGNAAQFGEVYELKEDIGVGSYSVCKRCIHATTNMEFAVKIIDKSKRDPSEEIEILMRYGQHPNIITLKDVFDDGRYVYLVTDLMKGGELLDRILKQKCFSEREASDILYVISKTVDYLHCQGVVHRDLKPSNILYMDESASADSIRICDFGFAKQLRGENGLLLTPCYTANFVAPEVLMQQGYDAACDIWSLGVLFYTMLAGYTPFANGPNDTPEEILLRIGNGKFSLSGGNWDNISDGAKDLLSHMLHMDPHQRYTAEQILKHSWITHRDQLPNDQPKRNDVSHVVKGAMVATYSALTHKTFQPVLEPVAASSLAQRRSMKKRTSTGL
UniProt P53779: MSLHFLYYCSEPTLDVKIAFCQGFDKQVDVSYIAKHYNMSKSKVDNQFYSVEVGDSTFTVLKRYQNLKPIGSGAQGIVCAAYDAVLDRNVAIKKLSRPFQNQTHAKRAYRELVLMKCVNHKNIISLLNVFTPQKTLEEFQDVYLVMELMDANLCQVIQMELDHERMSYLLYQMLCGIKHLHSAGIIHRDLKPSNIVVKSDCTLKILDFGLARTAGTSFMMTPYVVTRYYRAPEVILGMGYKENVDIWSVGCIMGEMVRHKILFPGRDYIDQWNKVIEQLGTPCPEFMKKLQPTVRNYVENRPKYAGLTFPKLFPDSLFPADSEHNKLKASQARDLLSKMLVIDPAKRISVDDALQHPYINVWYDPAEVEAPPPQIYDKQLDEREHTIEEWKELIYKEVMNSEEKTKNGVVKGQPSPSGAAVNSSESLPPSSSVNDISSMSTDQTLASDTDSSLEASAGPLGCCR
UniProt Q9HBY8: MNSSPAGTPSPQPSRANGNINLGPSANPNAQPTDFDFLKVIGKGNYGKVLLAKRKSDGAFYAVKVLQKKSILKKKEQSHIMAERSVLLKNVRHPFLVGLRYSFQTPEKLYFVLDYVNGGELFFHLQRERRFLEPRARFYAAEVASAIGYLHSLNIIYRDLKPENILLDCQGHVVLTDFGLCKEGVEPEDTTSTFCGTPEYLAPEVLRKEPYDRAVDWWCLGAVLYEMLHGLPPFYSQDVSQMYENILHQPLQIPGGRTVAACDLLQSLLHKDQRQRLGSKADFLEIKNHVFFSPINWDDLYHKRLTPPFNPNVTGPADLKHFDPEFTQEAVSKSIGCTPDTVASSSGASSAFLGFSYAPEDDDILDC
UniProt P10721, whole entry: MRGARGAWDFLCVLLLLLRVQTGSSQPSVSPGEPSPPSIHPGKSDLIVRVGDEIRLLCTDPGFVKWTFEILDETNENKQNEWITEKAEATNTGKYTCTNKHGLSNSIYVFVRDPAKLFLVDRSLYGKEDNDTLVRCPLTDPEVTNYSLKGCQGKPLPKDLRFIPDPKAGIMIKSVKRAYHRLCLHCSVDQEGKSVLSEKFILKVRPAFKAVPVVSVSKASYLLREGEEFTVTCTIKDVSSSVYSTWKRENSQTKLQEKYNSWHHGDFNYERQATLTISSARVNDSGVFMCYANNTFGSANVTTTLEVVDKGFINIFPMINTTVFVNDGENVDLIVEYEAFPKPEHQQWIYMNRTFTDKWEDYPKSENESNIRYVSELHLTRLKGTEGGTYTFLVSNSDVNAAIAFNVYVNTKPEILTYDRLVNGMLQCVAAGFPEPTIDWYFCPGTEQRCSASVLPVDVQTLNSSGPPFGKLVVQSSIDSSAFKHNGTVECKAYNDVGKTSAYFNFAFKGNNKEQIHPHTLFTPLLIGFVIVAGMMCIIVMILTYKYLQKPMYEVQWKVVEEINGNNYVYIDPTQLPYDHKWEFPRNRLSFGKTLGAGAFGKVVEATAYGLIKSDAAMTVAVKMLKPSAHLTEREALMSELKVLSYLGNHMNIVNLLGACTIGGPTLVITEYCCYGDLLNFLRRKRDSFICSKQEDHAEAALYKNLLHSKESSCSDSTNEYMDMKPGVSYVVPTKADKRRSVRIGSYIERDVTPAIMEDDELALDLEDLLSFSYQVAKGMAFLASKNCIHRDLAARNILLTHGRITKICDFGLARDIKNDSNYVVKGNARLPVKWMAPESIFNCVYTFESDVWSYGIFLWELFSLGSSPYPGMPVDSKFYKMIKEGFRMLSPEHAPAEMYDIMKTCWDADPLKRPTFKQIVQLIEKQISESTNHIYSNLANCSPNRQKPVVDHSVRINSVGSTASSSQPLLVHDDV
UniProt P10398: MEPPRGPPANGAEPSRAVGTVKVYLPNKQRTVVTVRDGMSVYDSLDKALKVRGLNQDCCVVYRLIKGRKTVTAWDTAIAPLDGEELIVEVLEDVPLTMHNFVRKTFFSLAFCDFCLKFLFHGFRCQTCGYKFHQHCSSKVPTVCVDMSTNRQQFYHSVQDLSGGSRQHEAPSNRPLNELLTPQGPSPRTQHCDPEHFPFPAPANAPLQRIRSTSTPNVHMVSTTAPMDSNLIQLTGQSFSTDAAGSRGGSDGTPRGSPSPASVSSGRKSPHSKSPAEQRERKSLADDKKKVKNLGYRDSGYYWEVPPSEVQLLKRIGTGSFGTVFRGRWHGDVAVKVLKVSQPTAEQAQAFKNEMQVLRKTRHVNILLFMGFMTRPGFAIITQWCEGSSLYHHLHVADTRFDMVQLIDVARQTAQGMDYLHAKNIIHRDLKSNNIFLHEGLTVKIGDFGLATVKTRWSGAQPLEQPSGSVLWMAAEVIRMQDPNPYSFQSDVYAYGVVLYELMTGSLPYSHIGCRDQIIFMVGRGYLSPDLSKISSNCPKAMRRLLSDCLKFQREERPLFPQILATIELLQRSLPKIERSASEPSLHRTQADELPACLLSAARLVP
UniProt Q9Y463, whole entry, looked up: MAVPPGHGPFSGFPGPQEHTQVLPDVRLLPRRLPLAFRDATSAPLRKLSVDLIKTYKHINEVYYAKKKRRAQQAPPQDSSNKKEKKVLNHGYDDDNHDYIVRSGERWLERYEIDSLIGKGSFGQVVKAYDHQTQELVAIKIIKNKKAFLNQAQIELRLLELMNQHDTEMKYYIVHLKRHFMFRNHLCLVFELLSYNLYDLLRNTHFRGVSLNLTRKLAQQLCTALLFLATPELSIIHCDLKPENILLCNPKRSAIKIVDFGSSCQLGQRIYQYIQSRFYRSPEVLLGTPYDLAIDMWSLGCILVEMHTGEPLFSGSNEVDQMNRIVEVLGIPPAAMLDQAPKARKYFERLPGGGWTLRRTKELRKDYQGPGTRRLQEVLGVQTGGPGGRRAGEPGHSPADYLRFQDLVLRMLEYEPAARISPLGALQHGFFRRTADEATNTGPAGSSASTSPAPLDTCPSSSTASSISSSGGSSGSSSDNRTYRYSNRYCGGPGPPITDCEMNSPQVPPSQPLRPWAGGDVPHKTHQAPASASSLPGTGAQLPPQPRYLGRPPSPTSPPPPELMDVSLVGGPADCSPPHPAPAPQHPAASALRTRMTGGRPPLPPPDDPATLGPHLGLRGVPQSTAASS
UniProt Q15831: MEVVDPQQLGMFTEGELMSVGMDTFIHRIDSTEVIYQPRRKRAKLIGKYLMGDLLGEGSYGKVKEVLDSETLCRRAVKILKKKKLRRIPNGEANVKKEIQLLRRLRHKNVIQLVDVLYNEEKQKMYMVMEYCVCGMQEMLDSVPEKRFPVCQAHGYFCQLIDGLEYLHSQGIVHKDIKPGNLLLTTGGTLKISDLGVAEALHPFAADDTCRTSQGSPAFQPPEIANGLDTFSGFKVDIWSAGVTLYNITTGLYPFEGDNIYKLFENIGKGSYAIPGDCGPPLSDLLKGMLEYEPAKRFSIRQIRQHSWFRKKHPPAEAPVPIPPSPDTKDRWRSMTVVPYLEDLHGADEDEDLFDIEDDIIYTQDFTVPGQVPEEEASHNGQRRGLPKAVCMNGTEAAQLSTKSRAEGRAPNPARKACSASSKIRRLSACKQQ

Legend:
Assay in all cases: apparent dissociation constant pKd app (kinobead competition) (-log10(M)); higher = stronger binding
BRSK2 = BRSK2 (UniProt Q8IWQ3)
MST1R = MST1R (UniProt Q04912)
RPS6KA6 = RPS6KA6 (UniProt Q9UK32)
MAPK10 = MAPK10 (UniProt P53779)
BMPR1B = BMPR1B (UniProt O00238)
EIF2AK1 = EIF2AK1 (UniProt Q9BQI3)
SGK2 = SGK2 (UniProt Q9HBY8)
PRKACA = PRKACA (UniProt P17612)
ADCK4 = ADCK4 (UniProt Q96D53)
KIT = KIT (UniProt P10721)
ARAF = ARAF (UniProt P10398)
DYRK1B = DYRK1B (UniProt Q9Y463)
STK11 = STK11 (UniProt Q15831)

Compound: NC(=O)c1cccc2cn(-c3ccc([C@@H]4CCCNC4)cc3)nc12 [Niraparib]
- apparent dissociation constant pKd app (-log10) (BRSK2): < 4.7
- apparent dissociation constant pKd app (-log10) (MST1R): < 4.6
- apparent dissociation constant pKd app (-log10) (RPS6KA6): < 4.7
- apparent dissociation constant pKd app (-log10) (MAPK10): < 4.8

Compound: O=C(c1cc(Cc2n[nH]c(=O)c3ccccc23)ccc1F)N1CCN(C(=O)C2CC2)CC1 [Olaparib]
- apparent dissociation constant pKd app (-log10) (BMPR1B): < 4.7
- apparent dissociation constant pKd app (-log10) (EIF2AK1): < 4.5
- apparent dissociation constant pKd app (-log10) (SGK2): < 4.5
- apparent dissociation constant pKd app (-log10) (PRKACA): < 4.5
- apparent dissociation constant pKd app (-log10) (ADCK4): < 4.5
- apparent dissociation constant pKd app (-log10) (KIT): < 4.5

Compound: Cn1ncnc1[C@H]1c2n[nH]c(=O)c3cc(F)cc(c23)N[C@@H]1c1ccc(F)cc1 [Talazoparib]
- apparent dissociation constant pKd app (-log10) (ARAF): < 4.5
- apparent dissociation constant pKd app (-log10) (DYRK1B): < 4.6
- apparent dissociation constant pKd app (-log10) (STK11): < 4.5
